Experimental data taken from ChEMBL document CHEMBL5528023, “Discovery of a CB2 and 5-HT1A receptor dual agonist for the treatment of depression and anxiety” (Eur J Med Chem, 2024).

The chains behind the UniProt entries cited, without tags or fusion partners.
UniProt P34972, whole entry: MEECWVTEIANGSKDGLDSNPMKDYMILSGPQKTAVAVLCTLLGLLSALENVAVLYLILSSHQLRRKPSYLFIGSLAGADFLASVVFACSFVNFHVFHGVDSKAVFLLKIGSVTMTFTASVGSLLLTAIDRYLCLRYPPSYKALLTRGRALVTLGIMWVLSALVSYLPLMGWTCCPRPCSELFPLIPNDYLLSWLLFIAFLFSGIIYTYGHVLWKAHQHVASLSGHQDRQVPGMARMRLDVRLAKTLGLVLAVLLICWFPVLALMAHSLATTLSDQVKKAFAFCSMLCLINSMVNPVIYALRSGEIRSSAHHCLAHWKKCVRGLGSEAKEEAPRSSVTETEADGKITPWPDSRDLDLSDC

Target: Cannabinoid receptor 2 (Homo sapiens, UniProt P34972)
Test: Agonist activity at human CB2 receptor expressed in CHO cells assessed as forskolin-stimulated cAMP formation preincubated with compound for 10 mins followed by forskolin induction and measured after 30 mins by HTRF analysis
Type: functional, cell-based

C=C(C)[C@@H]1CCC(C)=C[C@H]1c1c(O)cc(CCCCC)cc1O [CANNABIDIOL] gave an EC50 greater than 10 nM.
